Experimental data: US7132425B2, “5-substituted-six-membered heteroaromatic glucokinase activators” (Hoffmann-La Roche Inc., priority 2002, dated 2006)

System: C57BL/6J mice
Test: Glucokinase activator in vivo screen (blood glucose after oral dosing)
Settings: oral gavage 50 mg/kg after two hour fast, readings 1, 2, 4 and 6 hours post dose, p≦0.05 for two consecutive assay time points
Procedure: Glucokinase Activator in vivo Screen Protocol: C57BL/6J mice are orally dosed via gavage with Glucokinase (GK) activator at 50 mg/kg body weight following a two hour fasting period. Blood glucose determinations are made five times during the six hour post-dose study period.
Mice (n=6) are weighed and fasted for a two hour period prior to oral treatment. GK activators are formulated at 6.76 mg/ml in Gelucire vehicle (Ethanol:Gelucire44/14:PEG400q.s. 4:66:30 v/w/v. Mice are dosed orally with 7.5 μL formulation per gram of body weight to equal a 50 mg/kg dose. Immediately prior to dosing, a pre dose (time zero) blood glucose reading is acquired by snipping off a small portion of the animal's tail (˜1 mm) and collecting 15 μL blood into a heparinized capillary tube for analysis. Following GK activator administration, additional blood glucose readings are taken at 1, 2, 4 and 6 hours post dose from the same tail wound. Results are interpreted by comparing the mean blood glucose values of six vehicle treated mice with six GK activator treated mice over the six hour study duration.

Structure (SMILES) | decrease in blood glucose compared to vehicle
CSc1cnc(NC(=O)[C@H](CC2CCCC2)c2ccc(S(C)(=O)=O)c(Cl)c2)cn1 [Example 4, 2(R)-(3-Chloro-4-methanesulfonyl-phenyl)-3-cyclopentyl-N-(5-methylsulfanyl-pyrazin-2-yl)-propionamide] | statistically significant (p≦0.05) decrease in blood glucose
CS(=O)(=O)Cc1cnc(NC(=O)[C@H](CC2CCCC2)c2ccc(S(C)(=O)=O)c(Cl)c2)cn1 [Example 31, 2(R)-(3-Chloro-4-methanesulfonyl-phenyl)-3-cyclopentyl-N-(5-methanesulfonylmethyl-pyrazin-2-yl)-propionamide] | statistically significant (p≦0.05) decrease in blood glucose
CS(=O)(=O)c1ccc([C@@H](CC2CCCC2)C(=O)Nc2cnc(OC[C@H](O)CO)cn2)cc1Cl [Example 44] | statistically significant (p≦0.05) decrease in blood glucose
CS(=O)(=O)c1ccc([C@@H](CC2CCCC2)C(=O)Nc2cnc(OC[C@@H](O)CO)cn2)cc1Cl [Example 49, 2(R)-(3-Chloro-4-methanesulfonyl-phenyl)-3-cyclopentyl-N-[5-(2(S),3-dihydroxy-propoxy)-pyrazin-2-yl]-propionamide] | statistically significant (p≦0.05) decrease in blood glucose
CS(=O)(=O)c1ccc([C@@H](CC2CCCC2)C(=O)Nc2cnc(C#CC3(O)CCOCC3)cn2)cc1Cl [Example 50, 2(R)-(3-Chloro-4-methanesulfonyl-phenyl)-3-cyclopentyl-N-[5-(4-hydroxy-tetrahydropyran-4-yl-ethynyl)-pyrazin-2-yl]-propionamide] | statistically significant (p≦0.05) decrease in blood glucose
CC(C)(O)C#Cc1cnc(NC(=O)[C@H](CC2CCCC2)c2ccc(S(C)(=O)=O)c(Cl)c2)cn1 [Example 52, 2(R)-(3-Chloro-4-methanesulfonyl-phenyl)-3-cyclopentyl-N-[5-(3-hydroxy-3-methyl-but-1-ynyl)-pyrazin-2-yl]-propionamide] | statistically significant (p≦0.05) decrease in blood glucose
CC(C)(O)[C@@H](O)c1cnc(NC(=O)[C@H](CC2CCCC2)c2ccc(S(C)(=O)=O)c(Cl)c2)cn1 [Example 66, 2(R)-(3-Chloro-4-methanesulfonyl-phenyl)-3-cyclopentyl-N [5-(1(S),2-dihydroxy-2-methyl-propyl)-pyrazin-2-yl]-propionamide] | statistically significant (p≦0.05) decrease in blood glucose
